Source: patent publication US20250034110A1, “LPAR1 ANTAGONISTS AND USES THEREOF” (Pipeline Therapeutics, Inc., priority 2021, published 2025)
Read-outs that look alike come from different tables or passages of the source.

Protein sequences, listed by entry. Tags and fused reporters are not part of them.
UniProt Q92633, whole entry: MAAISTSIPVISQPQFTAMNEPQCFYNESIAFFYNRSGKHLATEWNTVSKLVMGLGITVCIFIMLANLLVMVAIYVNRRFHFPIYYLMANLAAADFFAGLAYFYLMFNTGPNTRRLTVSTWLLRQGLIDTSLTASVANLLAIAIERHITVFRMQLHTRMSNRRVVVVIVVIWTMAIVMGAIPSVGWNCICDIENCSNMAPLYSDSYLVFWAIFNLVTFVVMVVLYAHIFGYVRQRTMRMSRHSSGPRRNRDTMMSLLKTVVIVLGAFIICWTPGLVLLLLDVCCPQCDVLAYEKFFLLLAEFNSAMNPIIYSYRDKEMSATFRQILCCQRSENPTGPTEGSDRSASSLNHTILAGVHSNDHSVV

Biological target: human LPAR1 (Homo sapiens, UniProt Q92633)
Assay: In vitro functional assay of lysophosphatidic acid receptor 1 activity (calcium flux)
Assay type: cell-based
Conditions: read-out: LPAR1 IC50
[1] = B103 cells stably expressing human LPAR1, calcium flux (Fluo-4 NW) after lysophosphatidic acid (18:1) at EC80, 100 pM to 10 μM

Row | Structure (SMILES) | IC50 | IC50 [1]
1 | Cc1ccc(NC(=O)N(c2ccccc2C(C)C)[C@H]2CC[C@@](O)(C(F)(F)C(=O)O)CC2)c(OC(F)F)n1 (relative stereo) | 10 to 100 nM | 
2 | Cc1ccc(NC(=O)N(c2ccccc2C(C)C)C2CC3(CC(C(=O)O)C3)C2)c(OC(F)F)n1 (single isomer, unassigned) [293] |  | 10 to 100 nM
3 | Cc1ccc(NC(=O)N(c2ccccc2C(C)C)C2CC3(CC(C(=O)O)C3)C2)c(OC(F)F)n1 (single isomer, unassigned) [292] |  | < 10 nM
